B1: wild-type Moorella thermoacetica cyanuric acid hydrolase (MCAH) (Moorella thermoacetica ATCC 39073) (protein)
chain: MQKVEVFRIPTASPDDISGLATLIDSGKINPAEIVAILGKTEGNGCVNDFTRGFATQSLAMYLAEKLGISREEVVKKVAFIMSGGTEGVMTPHITVFVRKDVQEPAKPGKRLAVGVAFTRDFLPEELGRMEQVNEVARAVKEAMKDAQIDDPRDVHFVQIKCPLLTAERIEDAKRRGKDVVVNDTYKSMAYSRGASALGVALALGEISADKISNEAICHDWNLYSSVASTSAGVELLNDEIIVVGNSTNSASDLVIGHSVMKDAIDADAVRAALKDAGLKFDCCPPAEELAKIVNVLAKAEAASSGTVRGRRNTMLDDSDINHTRSARAVVNAVIASVVGDPMVYVSGGAEHQGPDGGGPIAVIARV

What was measured:
[1] = tested on: O=c1[nH]c(=O)[nH]c(=O)[nH]1; assay: purified protein; conditions: 25 mM Tris pH 8.0
purified protein = substrate: O=c1[nH]c(=O)[nH]c(=O)[nH]1; assay: purified protein; conditions: 25 mM Tris pH 8.0; remark: listed apart in the source

Molecule	Km [1] [µM]	kcat [1] [s⁻¹]	Km (purified protein) [µM]	kcat (purified protein) [s⁻¹]
RMCAH (re-engineered Moorella cyanuric acid hydrolase) (Moorella thermoacetica ATCC 39073; A291D/DEL283-287/E104A/E288D/F281S/K107A/K280R/K292R/L279I/L290M/Q103A)	276 ± 86	73 ± 17		
B1			318 ± 95	78 ± 18
